Measured values published in publication PMC8113490, “Androgen signaling uses a writer and a reader of ADP-ribosylation to regulate protein complex assembly” (Nature Communications, 2021).

Key:
Af1521 = target: T1, Af1521 (Archaeoglobus fulgidus, UniProt O28751)
T1 construct: gene AF_1521

[1] = target: Flag-AR 4CG (C125, 290, 327, 406G) (human) (UniProt P10275); assay: co-IP; AR IP from PC3M/HA-Parp7 cells stably expressing Flag-tagged WT AR or Cys-to-Gly mutants, treated +R1881; probed for AR, ADP-ribosylation, Dtx3L and Parp9

| Molecule | competition of ADP-ribosylated AR pull-down on GST-Af1521 beads (Af1521) | complex formation, percent of WT [1] |
| --- | --- | --- |
| Nc1ncnc2c1ncn2[C@@H]1O[C@H](COP(=O)(O)OP(=O)(O)OC[C@H]2OC(O)[C@H](O)[C@@H]2O)[C@@H](O)[C@H]1O (some centres unmarked) [ADP-ribose] | also bound to GST-Af1521 beads, was dependent on R1881 pretreatment of the cells, and was competitively inhibited by ADP-ribose | – |
| Dtx3L (from UniProt Q8TDB6 1-740) (enzyme) | – | 50 % of WT |
